Experimental data reported in patent US9439918B2 (priority 2008, dated 2016).
Converted amounts (≈) assume the structure as drawn.

System: Salmonella, Shigella and C. jejuni
Type: cell-based

| SMILES | MIC50 ranges [µg/mL] |
| --- | --- |
| CC[C@H]1OC(=O)[C@H](C)[C@@H](O[C@H]2C[C@@](C)(OC)[C@@H](O)[C@H](C)O2)[C@H](C)[C@@H](O[C@@H]2O[C@H](C)C[C@H](N(C)C)[C@H]2O)[C@](C)(O)C[C@@H](C)CN(C)[C@H](C)[C@@H](O)[C@]1(C)O [AZI, azithromycin] | 4 (≈ 5.34 µM) |
| CC[C@H]1OC(=O)[C@H](C)C(=O)[C@H](C)[C@@H](O[C@@H]2O[C@H](C)C[C@H](N(C)C)[C@H]2O)[C@](C)(OC)C[C@@H](C)C(=O)[C@H](C)[C@H]2N(CCCCn3cnc(-c4cccnc4)c3)C(=O)O[C@]12C [TEL, telithromycin] | 8 to 16 |
